Entries after “also recorded” stand apart in the source; their conditions may differ. Marks after values point to notes of the source that are not given here.
Assays:
BT474 xenografts [1] = experiment: BT474 human breast cancer xenograft, doxorubicin studies 1-3; type: in vivo, mice
Protocol: In study numbers 1, 2 and 3 immune-deficient mice were inoculated by subcutaneous injection into the dorsum with 5 million BT474 cells in 0.1 mL added to an equal volume of Matrigel for an inoculation volume of 0.2 mL. The inoculated mice were divided into six treatment groups of 12 mice each, prior to inoculation. Treatment was initiated when the average tumor volume was 100 mm^3, which occurred approximately 7-10 days after inoculation.
Saline, doxorubicin and liposome-entrapped doxorubicin were administered by intravenous injection for three treatments. The anti-HER2 antibody, Herceptin, was administered by intraperitoneal injection twice weekly for a total of six treatments. The animals were monitored daily and the tumors were measured in three dimensions twice weekly over the study period.
(§1) 1. BT474 and MDA453 Cells: The BT474 and MDA453 tumors were each inoculated from cultured cells in exponential growth. Cells were trypsinized, collected and washed in media. Cells were counted by hemacytometer, spun down and resuspended in media at 50 million cells per milliliter of media. Resuspended cells were chilled, then mixed with an equal volume of Matrigel. Cells (5 million cells per 0.2 ml injection volume, continuously mixed) were drawn into individual, chilled syringes for subcutaneous injection into the dorsum of each animal.
Immune deficient mice were used in all experiments. Study numbers 1, 2, 3 and 4 were conducted in homozygous nude female mice. Study number 5 was conducted in homozygous ICR scid female mice. All mice were obtained at the age of four weeks and acclimated for a minimum of 1 week prior to tumor inoculation. All mice were ear tagged for individual identification during acclimation. For each study, 75 mice were inoculated with tumors to supply 72 study animals at treatment.
Animals were weighed prior to inoculation of tumors and at least weekly thereafter. Tumors were measured twice weekly throughout the experiment, beginning 6-8 days after tumor inoculation. Tumor measurements were made by digital caliper in 3 dimensions and the volume recorded as one-half the product of these measurements. Any animal observed to have 15% or greater weight loss from the initial starting weight was immediately euthanized by inhalation of 100% carbon dioxide. Any animal observed to have greater than 4,000 mm^3 tumor volume was immediately euthanized by inhalation of 100% carbon dioxide. […]
(§2) Tumor volumes, measured repeatedly throughout the experiments, were used for analysis as correlated information. […] All tumor volumes were log transformed, with z=log10(y+1) where y is the calculated tumor volume, thus when y=0, z is meaningful and z=0. Log growth rates for transformed values, z, for each treatment group within each experiment were calculated and compared in linear regression. […]

B585 xenografts = experiment: B585 primary human breast cancer xenograft, doxorubicin study 5; type: in vivo, mice
Protocol: The primary human breast cancer B585 express high levels of HER2. In Study No. 5, mice were inoculated with passaged B585 tumor tissue.
(§3) The animals were dosed as described above, with the saline and chemotherapeutic agent administered intravenously once per week and the biological agent administered intraperitoneally twice per week.
2. B585 Human Cells: The B585 primary human breast xenografts were inoculated from tumor tissue harvested from tumor bearing animals. Tumors were minced with scissors and resuspended in media. Resuspended cells were chilled, then mixed with an equal volume of Matrigel. […]
(§4) Animals were weighed prior to inoculation of tumors and at least weekly thereafter. Tumors were measured twice weekly throughout the experiment, beginning 6-8 days after tumor inoculation. Tumor measurements were made by digital caliper in 3 dimensions and the volume recorded as one-half the product of these measurements. […]
as §2

MDA453 xenografts [2] = experiment: MDA453 human breast cancer xenograft, cisplatin study 8; type: in vivo, mice
Protocol: Another study was performed using the MDA453 xenograft model. Immune deficient mice were inoculated with MDA453 tumor cells-as described in Example 2.
Following the dosing regimen described above, the therapies were administered to the test animals. Tumor volume over the course of the experiment is shown in FIGS. 9A-9B, where the large arrowheads along the x-axis indicate administration of drug plus antibody and the smaller arrows indicate administration of antibody only.
Two separate HER2-overexpressing human breast cancer xenograft models were utilized: BT474 and MDA453. The BT474 or MDA453 tumors were inoculated from cultured cells in exponential growth. […] Cells were counted by hemacytometer, spun down and resuspended in media at 50 million cells per milliliter of media (5 million cells per 0.1 ml injection volume). […]
as §4, with “one half” for “one-half”
Tumor volumes, measured repeatedly throughout experiments, were used for analysis as correlated information. […] Growth rates (slope) for each treatment group within each experiment were calculated and compared in linear regression. […]

BT474 xenografts [3] = experiment: BT474 human breast cancer xenograft, cisplatin studies 6-7; type: in vivo, mice
Protocol: In Study No. 6, mice were inoculated with BT474 cells.
The animals were dosed as described in Example 2, with the saline and chemotherapeutic agent administered intravenously once per week and the biological agent administered intraperitoneally twice per week.
In Study No. 7, the dosage of the antibody was reduced to better differentiate between the treatment regimens.
Two separate HER2-overexpressing human breast cancer xenograft models were utilized: BT474 and MDA453. The BT474 or MDA453 tumors were inoculated from cultured cells in exponential growth. Cells were trypsinized, collected and washed in media. Cells were counted by hemacytometer, spun down and resuspended in media at 50 million cells per milliliter of media (5 million cells per 0.1 ml injection volume). Resuspended cells were chilled, then mixed in an equal volume of Matrigel. Cells (0.2 ml, continuously mixed) were drawn into individual, chilled syringes for subcutaneous injection into the dorsum of each animal.
Immune-deficient female mice (NCR.nu/nu, Taconic Farms, Germantown, N.Y.) were obtained from the vendor and acclimated for at least 7 days prior to initiation of experiments. Animals were housed in microisolator caging (Thoren Caging, Hazelton, Pa.) with ad lib gamma irradiated rodent food and autoclaved, acidified water. Lights were set for 12:12 light: dark cycle. All animals received a 0.72 mg estradiol 17β sustained release pellet (Innovative Research of America, Sarasota, Fla.) by subcutaneous injection 24 hours prior to tumor inoculation. Animals were randomized into treatment groups prior to inoculation of tumors.
Animals were weighed prior to inoculation of tumors and at least weekly thereafter. Tumors were measured twice weekly throughout the experiment, beginning 6-8 days after tumor inoculation. Tumor measurements were made by digital caliper in 3 dimensions and the volume recorded as one half the product of these measurements. Any animal observed to have 15% or greater weight loss from the initial starting weight was immediately euthanized. Any animal observed to have greater than 4,000 mm^3 tumor volume was immediately euthanized.
Animals were divided into 6 treatment groups (12 animals each) prior to inoculation of tumors in all experiments.
Saline, cisplatin and PL-cisplatin were administered by intravenous injection; Herceptin was administered by intraperitoneal injection. All treatments were administered for 3 weekly cycles. Treatment was initiated when average tumor volume was 75 mm^3 (approximately 6-10 days after inoculation). Tumor sizes within each treatment group were compared to confirm similar initial size prior to initiation of treatment.
Tumor volumes, measured repeatedly throughout experiments, were used for analysis as correlated information. Since tumor growth over time after treatment was of interest, repeated measurement analysis for each treatment group was performed. Growth rates (slope) for each treatment group within each experiment were calculated and compared in linear regression. If the growth rate was positive for a certain treatment, tumors were still growing even after receiving the drug; if the growth rate is negative, tumors began to shrink after receiving the drug; if the growth rate is 0, tumors stop growing after receiving the drug. A p-value of 0.05 or less is considered significant.
Tumor size at specific times after treatment was compared between treated and control groups. Tumor growth inhibition was reported as % T/C which is the tumor size of each treated group divided by the control group, expressed as a percentage.

MDA453 xenografts [4] = experiment: MDA453 human breast cancer xenograft, doxorubicin study 4; type: in vivo, mice; conditions: doxorubicin HCl or liposome-entrapped 5 mg/kg iv once/week x3, anti-HER2 antibody 5 mg/kg ip twice/week x6
Protocol: Another study, Study No. 4, was conducted using MDA453 xenografts, following the methodology set forth in Example 1.
as §3
as §1, with “Cells (5 million cells per 0.2 ml injection volume, continuously mixed) were drawn into individual, chilled syringes for subcutaneous injection into the dorsum of each animal.” left out
as §4, §2

[5] = doses ranging from 5 mg/m^2 to 400 mg/m^2; cited from earlier work
A431 tumor = A431 tumor xenograft implanted subcutaneously in nude mice, tumor volume; type: in vivo
Source text: In studies performed in support of the invention, a xenograft of the A431 tumor was implanted subcutaneously in nude mice. Six days after tumor implantation, the mice were randomly grouped for treatment with one of the following regimens: free doxorubicin, an anti-EGFR antibody (C225), liposomal-entrapped doxorubicin; free doxorubicin plus the anti-EGFR antibody, or liposome-entrapped doxorubicin plus the anti-EGFR antibody. The liposomes included a vesicle-forming lipid derivatized with the hydrophilic polymer polyethyleneglycol.
The results are shown in FIG. 1, where the tumor volume, in mm^3, is shown as a function of time following tumor implantation, in days. […] The mice treated with the combined treatments of the therapeutic agent and the biological agent fared best.
Table 1 tabulates the size of the tumor at 40 and 60 days following tumor implantation.

With “Herceptin: humanized anti-p185HER2 monoclonal antibody, rhuMAb HER2 (Herceptin, Genentech)” the “Log Growth Rate, Study No. 1” value (BT474 xenografts [1]; BT474, doxorubicin HCl 4 mg/kg or liposome-entrapped 3 mg/kg iv once/week x3, anti-HER2 antibody 10 mg/kg ip twice/week x6) was −0.061^b, the “Log Growth Rate, Study No. 3” value (BT474 xenografts [1]; BT474, doxorubicin HCl or liposome-entrapped 3 mg/kg iv once/week x3, anti-HER2 antibody 1 mg/kg ip twice/week x6) was −0.020^c,d and the “Log Growth Rate, Study No. 2” value (BT474 xenografts [1]; BT474, doxorubicin HCl or liposome-entrapped 5 mg/kg iv once/week x3, anti-HER2 antibody 3 mg/kg ip twice/week x6) was −0.019^c,d,e. For the same substance, the “tumor volume over treatment period (FIGS. 2A-2B), in words” value (BT474 xenografts [1]; Study No. 1, BT474, doxorubicin 4 mg/kg, liposomal 3 mg/kg, antibody 10 mg/kg, listed as anti-HER2 antibody) was “decrease in tumor volume; also recorded: eliminates tumor growth”, the “Log Growth Rate, Study No. 5” value (B585 xenografts; B585, doxorubicin HCl or liposome-entrapped 4 mg/kg iv once/week x3, anti-HER2 antibody 3 mg/kg ip twice/week x6) was 0.061^b,c and the “tumor volume over treatment period (FIGS. 6A-6B), in words” value (B585 xenografts; Study No. 5, B585, doxorubicin 4 mg/kg, liposomal 4 mg/kg, antibody 3 mg/kg) was “continuous tumor growth”. The “Size of treated tumors as a function of size of control tumors, % T/C, Study No. 8” value (MDA453 xenografts [2]; Day 33, MDA453, cisplatin 4 mg/kg, antibody 1 mg/kg, control saline) was 0.1 % T/C, the “Growth rate of tumors (slope), Study No. 8 MDA453” value (MDA453 xenografts [2]; cisplatin or liposome-entrapped cisplatin 4 mg/kg iv once/week x3, anti-HER2 antibody 1 mg/kg ip twice/week x6) was −1.14 and the “Size of treated tumors as a function of size of control tumors, % T/C, Study No. 6” value (BT474 xenografts [3]; Day 44, BT474, cisplatin 6 mg/kg, antibody 3 mg/kg, control saline) was 1.9 % T/C. For the same substance, the “Size of treated tumors as a function of size of control tumors, % T/C, Study No. 7” value (BT474 xenografts [3]; Day 49, BT474, cisplatin 4 mg/kg, antibody 0.5 mg/kg, control saline) was 35.5 % T/C, the “tumor volume over treatment period (FIGS. 7A-7B), in words” value (BT474 xenografts [3]; Study No. 6, BT474, cisplatin 6 mg/kg, antibody 3 mg/kg) was “little to no tumor growth” and the “tumor volume over treatment period (FIG. 8), in words” value (BT474 xenografts [3]; Study No. 7, BT474, cisplatin 4 mg/kg, antibody 0.5 mg/kg) was “continual tumor growth”. The “Growth rate of tumors (slope), Study No. 7 BT474” value (BT474 xenografts [3]; cisplatin or liposome-entrapped cisplatin 4 mg/kg iv once/week x3, anti-HER2 antibody 0.5 mg/kg ip twice/week x6) was 10.78^c,d, the “Growth rate of tumors (slope), Study No. 6 BT474” value (BT474 xenografts [3]; cisplatin or liposome-entrapped cisplatin 6 mg/kg iv once/week x3, anti-HER2 antibody 3 mg/kg ip twice/week x6) was −0.34 and the “Log Growth Rate, Study No. 4” value (MDA453 xenografts [4]) was −0.030^c,d.

For “anti-EGFR antibody: EGFR antagonist C225, developed by ImClone Systems, designed to block the EGF receptor”, the “toxicity, in words” value [5] is given as “not toxicity”, the “Tumor Volume at 40 days” value (A431 tumor; 40 days following tumor implantation) is given as 750 mm^3 and the “Tumor Volume at 60 days” value (A431 tumor; 60 days following tumor implantation) is given as 2500 mm^3. The “tumor volume as a function of time (FIG. 1), in words” value (A431 tumor; treatment from day 6) was “still an increase in tumor size but to a lesser extent”.
